## Antibody variant affinities, Ab-14 heavy chain, assay 1

All variants were tested on one target, the spike HR2 peptide PDVDLGDISGINAS (SARS-CoV-2).

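Phage display of a naive human antibody library on the peptide gave the parent. The library (AAYL49) carries one to three amino acid substitutions per variant, with no insertions or deletions. Affinity was read by AlphaSeq, a pooled yeast mating assay with surface-displayed partners. Binding brings cells together so that they mate, and sequencing counts the barcode pairs among the diploids. A regression on co-assayed BCL2-family reference pairs converts the normalised counts of each replicate to an apparent Kd. There are three technical replicates.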

The variants keep the light chain, the linker and the frameworks of Ab-14 (scFv order VH, a 15-residue (Gly4Ser)3 linker, VL).
VH: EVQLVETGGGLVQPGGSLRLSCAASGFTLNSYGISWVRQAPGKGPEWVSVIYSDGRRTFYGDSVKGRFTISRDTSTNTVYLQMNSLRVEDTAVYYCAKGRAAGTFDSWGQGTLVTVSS
VL: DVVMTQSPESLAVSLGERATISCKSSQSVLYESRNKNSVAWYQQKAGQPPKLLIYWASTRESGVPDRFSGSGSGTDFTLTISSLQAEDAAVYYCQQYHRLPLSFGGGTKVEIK

Each variant is given by its three heavy chain CDRs, as the data file delimits them; those of the parent are GFTLNSYGIS, VIYSDGRRTFYGDSVK, GRAAGTFDS. Numbers give log10(Kd / nM), so 0 is 1 nM and 3 is 1 µM. Smaller is tighter. "nd" means that the variant was in the library but no mating with the target was seen in that replicate; the authors take this as a sign of poor binding, and no number exists. For reference, the parent read 0.65 as the reference entry and 4.11 (one replicate of three) as a member of this library.

| CDR-H1 | CDR-H2 | CDR-H3 | replicates, log10 nM | signal with controls |
|---|---|---|---|---|
| WFTLNWYGIS | VIYSDNRRTFYGDSVK | GRAAGTFDS | nd nd nd | 0 of 9 |
| GFTLNSYGIS | VIYSDGRATFYGDSVK | GRDAGTFDF | 5.01 nd nd | 1 of 9 (3.15) |
| GFTLNKYGIS | VICWDGRRTFYGDSVK | GRAAGTFDS | nd nd nd | 0 of 9 |
| GFILNSYGIS | VIYSDGRDTFYGVSVK | GRAAGTFDS | nd 5.12 nd | 1 of 9 (4.40) |
| GFTLNSYGIS | VISSDGRRTFYGDSKK | CRAAGTFDS | nd nd nd | 0 of 9 |
| GFTLNSYNIS | VINSDGRRTFYGMSVK | GRAAGTFDS | nd nd nd | 0 of 9 |
| GFTLNSYGIS | VFMSDGRRTFYGDSVK | GRAAGTFDS | 4.90 nd 4.45 | 4 of 9 (4.12) |
| GFTLNSSGIS | VIYSDGRRTFYGDSHK | GRAAGTFMS | 4.81 3.43 4.34 | 1 of 9 (4.26) |
| GFTLNSYGIS | VRYSDRRRTFYGDSVK | GAAAGTFDS | nd nd nd | 0 of 9 |
| GLTLNSYGIS | VIYSDGRRTFYIDSVK | VRAAGTFDS | nd nd nd | 0 of 9 |
| GFTDNSYGIS | VIYSDGRRTFLFDSVK | GRAAGTFDS | nd nd nd | 1 of 9 (2.20) |
| GLTLNSYGIS | VIYPDGRRTFYGDSVK | GRATGTFDS | nd nd nd | 0 of 9 |
| GFTGNSYGQS | VIYSDGRRTFYGDLVK | GRAAGTFDS | nd nd 3.74 | 0 of 9 |
| GFTLNSYGIS | VIYSLGRRTFYGDSVK | GRAAGTFDS | nd nd nd | 2 of 9 (3.84) |
| GFTLNSYGIS | VIHSDIRRTFYGDSVK | GRAAGTFDS | nd 4.37 nd | 4 of 9 (3.58) |
| GMTLNSYGIS | VIYVDDRRTFYGDSVK | GRAAGTFDS | nd nd nd | 0 of 9 |
| GFTLNSYGIS | VIYSDGRRTFLNDSVK | GRAAGTFDS | nd 4.19 nd | 1 of 9 (3.97) |
| GQTLNSYGHS | VIYSDGRRTFRGDSVK | GRAAGTFDS | 3.97 3.90 4.97 | 3 of 9 (3.54) |
| GDTLNSDGIS | VIESDGRRTFYGDSVK | GRAAGTFDS | nd nd 4.76 | 3 of 9 (4.16) |
| GFTLNSYGIS | VIYSDGRRTFYGYSVW | GRAADTFDS | nd nd nd | 0 of 9 |
| GFTLNSYGIS | VIYSDGRGTFYGISGK | GRAAGTFDS | nd 4.60 nd | 3 of 9 (3.47) |
| GLTLNSYGIS | VINSDGRRTFYGDPVK | GRAAGTFDS | nd nd nd | 1 of 9 (4.27) |
| GNTLNSYGIS | VIYSDGRRTHYSDSVK | GRAAGTFDS | 1.24 1.35 1.38 | 4 of 9 (4.36) |
| GFTLNSYGQS | VIPSDGRRTFYWDSVK | GRAAGTFDS | nd nd nd | 2 of 9 (3.18) |
| GFTLNSYGIV | VIYSDGRRTFYFDSVK | GRAKGTFDS | nd nd nd | 1 of 9 (4.29) |
| GFTLNSYGIS | NNYSDGRRTFYGDSVK | GRAAGTFDS | 6.28 5.43 nd | 1 of 9 (3.25) |
| GFTLNSYGVS | VIYIDQRRTFYGDSVK | GRAAGTFDS | 3.31 2.95 nd | 0 of 9 |
| GFTLNSYGIA | YCYSDGRRTFYGDSVK | GRAAGTFDS | nd nd nd | 0 of 9 |
| GFTLDSYGIS | VIESDGRRTFYGDHVK | GRAAGTFDS | nd nd nd | 0 of 9 |
| GFTLNSAGIS | CIYSDGRRTFYGDSVK | GRAAGTFDS | nd 3.86 nd | 1 of 9 (4.39) |
| GFTLNSYGDS | VIYSDGRRTFYGDSVK | GRAATEFDS | nd nd nd | 0 of 9 |
| GFTLNSYGIS | VICSVKRRTFYGDSVK | GRAAGTFDS | nd 2.79 2.41 | 1 of 9 (3.46) |
| GFTLNSYGIS | VIYSDGRRTFQGDSVK | GRAAGTFDV | nd nd nd | 0 of 9 |
| GFTLNSYGIS | VIYSDGRRTFYGDSVK | GWAAGMFDE | nd nd 3.51 | 2 of 9 (3.20) |
| GFTVSSSGIS | VIYSDGRRTFYGDSVK | GRAAGTFDS | nd nd nd | 2 of 9 (3.01) |
| GFTLNSYGLS | VTYSDGRRTFYGDSVK | GRAAKTFDS | nd nd nd | 0 of 9 |
| GFTLNSYGIS | VIYSDGRDTFYGDSVK | GRANGHFDS | nd nd nd | 1 of 9 (3.41) |
| GFGLNSYGIS | VIYSDGRRTFYGYSVK | GRAANTFDS | 2.39 2.37 2.61 | 0 of 9 |
| GFTLNLYGIS | VIYDDGRRTFYGDSVK | GRAAGTCDS | nd 4.30 nd | 4 of 9 (4.94) |
| GFYLNSYGIS | VIYSDGRRMFYGDSVK | GRAAGTMDS | nd nd nd | 1 of 9 (2.69) |
| GFTLNSYGIS | WIYSDGRRTFYGDSVK | PRAMGTFDS | nd nd nd | 0 of 9 |
| GFTLNVAGIS | VIYSDGRRTFYGDSVK | GREAGTFDS | nd nd nd | 1 of 9 (3.93) |
| GFTCNSYGIS | VIKSRGRRTFYGDSVK | GRAAGTFDS | 3.04 nd nd | 1 of 9 (3.10) |
| GFTLNSYGIS | VIYSDGRRTFYGDSVK | GRNAGTGDV | 1.24 1.10 0.94 | 3 of 9 (3.70) |
| GFTLNSFGIS | VIYSDGRRTFYGDSVK | GRASGTFTS | 2.42 2.21 2.25 | 4 of 9 (4.27) |
| GFTLNSYGFS | VIYSDGRRTFYGASVL | GRAAGTFDS | nd nd nd | 0 of 9 |

Excerpt, the first 7 entries:

CDR-H1	CDR-H2	CDR-H3	replicates, log10 nM	signal with controls
WFTLNWYGIS	VIYSDNRRTFYGDSVK	GRAAGTFDS	nd nd nd	0 of 9
GFTLNSYGIS	VIYSDGRATFYGDSVK	GRDAGTFDF	5.01 nd nd	1 of 9 (3.15)
GFTLNKYGIS	VICWDGRRTFYGDSVK	GRAAGTFDS	nd nd nd	0 of 9
GFILNSYGIS	VIYSDGRDTFYGVSVK	GRAAGTFDS	nd 5.12 nd	1 of 9 (4.40)
GFTLNSYGIS	VISSDGRRTFYGDSKK	CRAAGTFDS	nd nd nd	0 of 9
GFTLNSYNIS	VINSDGRRTFYGMSVK	GRAAGTFDS	nd nd nd	0 of 9
GFTLNSYGIS	VFMSDGRRTFYGDSVK	GRAAGTFDS	4.90 nd 4.45	4 of 9 (4.12)

As a blank, each scFv also met three strains without target: over library AAYL49, 15% of these pairings were detected, typically at 4.06 and seldom below 2.83. Also given: how often the same scFv was detected with the empty control strains, with their mean in brackets.

Values reported by Engelhart et al. 2022, doi:10.1038/s41597-022-01779-4 (FLAb copy).